# Experimental data: ChEMBL document CHEMBL5029200, “Imidazoline- and Benzamidine-Based Trypanosome Alternative Oxidase Inhibitors: Synthesis and Structure-Activity Relationship Studies” (ACS Med Chem Lett, 2022)
# System: HEK293
# Assay: Cytotoxicity against HEK293 cells
# Assay type: ADME, cell-based
# Details: human
compound,measurement,value
O=[As]c1ccccc1 (stereo unspecified),CC50,900 nM
